The target of test [1] is T1, CB2 receptor (Homo sapiens, UniProt P34972). Kind of test: cell-based. Also on record: host or cells: cAMP Hunter cell lines. Here is the method: (§1) Compounds of the invention were assayed in the PathHunter® β-Arrestin assay to determine agonist activity on the CB1 and CB2 receptors, the results of which are provided in Table 6.
(§2) The PathHunter® β-Arrestin assay monitors the activation of a GPCR in a homogenous, non-imaging assay format using a technology developed by DiscoverX called Enzyme Fragment Complementation (EFC) with β-galactosidase (3-Gal) as the functional reporter. […] EA is fused to β-Arrestin and PK is fused to the GPCR of interest.
(§3) PathHunter cell lines were expanded from freezer stocks according to standard procedures. Cells were seeded in a total volume of 20 μL into white walled, 384-well microplates and incubated at 37° C. for the appropriate time prior to testing. For agonist activity determination, cells were incubated with sample to induce response. Intermediate dilution of sample stocks was performed to generate 5× sample in assay buffer. […] Microplates were read following signal generation with a PerkinElmer Envision™ instrument for chemiluminescent signal detection. Compound activity was analyzed using CBIS data analysis suite (ChemInnovation, CA). For agonist assays, percentage activity was calculated using the following formula: % Activity=100%×(mean RLU of test sample− mean RLU of vehicle control)/(mean MAX control ligand− mean RLU of vehicle control).

By UniProt entry, the sequences of proteins in these tests, tags left out.
UniProt P34972, whole entry: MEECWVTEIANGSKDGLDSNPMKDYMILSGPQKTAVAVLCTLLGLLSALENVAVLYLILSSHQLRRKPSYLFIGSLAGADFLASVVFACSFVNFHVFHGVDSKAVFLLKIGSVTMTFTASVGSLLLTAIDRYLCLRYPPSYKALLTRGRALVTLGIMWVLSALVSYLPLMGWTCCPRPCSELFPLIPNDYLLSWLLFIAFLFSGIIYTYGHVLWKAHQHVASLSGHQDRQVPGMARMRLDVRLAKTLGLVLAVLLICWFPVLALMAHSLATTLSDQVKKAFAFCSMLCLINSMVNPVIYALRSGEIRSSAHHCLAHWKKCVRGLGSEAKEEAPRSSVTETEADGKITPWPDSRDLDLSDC
UniProt P21554, whole entry: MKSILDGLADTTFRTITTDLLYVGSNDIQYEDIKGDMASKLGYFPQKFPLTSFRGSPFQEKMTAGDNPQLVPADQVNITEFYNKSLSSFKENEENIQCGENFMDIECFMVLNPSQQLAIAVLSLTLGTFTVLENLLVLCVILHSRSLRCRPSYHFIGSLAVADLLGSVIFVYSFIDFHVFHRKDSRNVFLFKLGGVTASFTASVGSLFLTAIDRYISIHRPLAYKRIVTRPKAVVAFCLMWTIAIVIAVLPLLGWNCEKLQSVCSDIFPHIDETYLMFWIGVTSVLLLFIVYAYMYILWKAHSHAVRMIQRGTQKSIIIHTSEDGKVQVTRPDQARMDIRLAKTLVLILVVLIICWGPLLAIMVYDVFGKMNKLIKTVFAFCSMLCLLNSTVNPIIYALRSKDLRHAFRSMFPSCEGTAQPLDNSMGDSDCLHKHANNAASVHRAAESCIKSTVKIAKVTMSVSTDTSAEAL

Test [2] deals with T2, CB1 receptor (Homo sapiens, UniProt P21554). Kind of test: CB1 competitive radioligand binding assay ([3H] SR141716A). More on the design: expressed in transfected cells; host or cells: Chem-1 cells. Here is the method: (§4) The binding affinity (% inhibition, Ki) of compounds of the invention for the CB1 and CB2 receptors was determined by a competitive radioligand binding assay, the results of which are provided in Table 2 and Table 3. Exemplary methods for the determination of binding affinity for a cannabinoid receptor by competitive radioligand binding can be found in the literature, for example, in Reggio P. H., et al. The bioactive conformation of aminoalkylindoles at the cannabinoid CB1 and CB2 receptors: insights gained from (E)- and (Z)-naphthylidene indenes. J Med Chem. 41(26): 5177-5187 (1998); and Munro S., et al. Molecular characterization of a peripheral receptor for cannabinoids. Nature 365:61-65 (1993).
CB1 Radioligand Binding Assay: A compound of the invention (0.5 μM in 1% DMSO) was incubated with Chem-1 cells expressing human recombinant CB1 receptor in buffer (50 mM HEPES, pH 7.4, 5 mM MgCl2, 1 mM CaCl2, 0.2% BSA) for 90 minutes at 37° C. in the presence of 2.0 nM [H^3] SR141716A (CB1 radioligand). % Inhibition was determined as a function of radioligand binding to the CB1 receptor.

Test [3] deals with T1, CB2 receptor. Briefly: CB2 competitive radioligand binding assay ([3H] WIN-55,212-2). Also on record: expressed in transfected cells; host or cells: CHO-K1 cells. On the procedure: as §4
CB2 Radioligand Binding Assay: A compound of the invention (0.05 μM in 1% DMSO) was incubated with CHO-K1 cells expressing human recombinant CB2 receptor in buffer (20 mM HEPES, pH 7.0, 0.5% BSA) for 90 minutes at 37° C. in the presence of 2.4 nM [H^3] WIN-55,212-2 (CB2 radioligand). % Inhibition was determined as a function of radioligand binding to the […].

Test [4] addresses T2, CB1 receptor. Briefly: cell-based. More on the design: host or cells: PathHunter cell lines. Here is the method:
as §1, §2, §3

Our source for the EC50 and Ki values is patent US20210284621A1 (priority 2018, published 2021).

A value given as a limit tells only on which side of the number the result lay.

With `CCCCCCC(C)(C)c1ccc2c(c1)OC(C)(C)[C@@H]1CC=C(C(=O)O)C[C@@H]21` [Compound 21, (6aR,10aR)-6,6-dimethyl-3-(2-methyloctan-2-yl)-6a,7,10,10a-tetrahydro-6H-benzo[c]chromene-9-carboxylic acid], the EC50 (commonly the concentration that produces a half-maximal response) at CB2 receptor [1] is above 1000 nM; on CB1 receptor [4] it was 2670 nM. The inhibition constant Ki (usually the equilibrium dissociation constant of an inhibitor or competing ligand from its target) on CB1 receptor [2] was above 5000 nM; on CB2 receptor [3], above 3000 nM.
